The values below come from publication PMC7938888, “Antidepressant drugs act by directly binding to TRKB neurotrophin receptors” (Cell, 2021).

Amino acid sequences for entries named in this document (tags omitted). Residues count along the entry.
UniProt P15209, 32-821 limits assumed: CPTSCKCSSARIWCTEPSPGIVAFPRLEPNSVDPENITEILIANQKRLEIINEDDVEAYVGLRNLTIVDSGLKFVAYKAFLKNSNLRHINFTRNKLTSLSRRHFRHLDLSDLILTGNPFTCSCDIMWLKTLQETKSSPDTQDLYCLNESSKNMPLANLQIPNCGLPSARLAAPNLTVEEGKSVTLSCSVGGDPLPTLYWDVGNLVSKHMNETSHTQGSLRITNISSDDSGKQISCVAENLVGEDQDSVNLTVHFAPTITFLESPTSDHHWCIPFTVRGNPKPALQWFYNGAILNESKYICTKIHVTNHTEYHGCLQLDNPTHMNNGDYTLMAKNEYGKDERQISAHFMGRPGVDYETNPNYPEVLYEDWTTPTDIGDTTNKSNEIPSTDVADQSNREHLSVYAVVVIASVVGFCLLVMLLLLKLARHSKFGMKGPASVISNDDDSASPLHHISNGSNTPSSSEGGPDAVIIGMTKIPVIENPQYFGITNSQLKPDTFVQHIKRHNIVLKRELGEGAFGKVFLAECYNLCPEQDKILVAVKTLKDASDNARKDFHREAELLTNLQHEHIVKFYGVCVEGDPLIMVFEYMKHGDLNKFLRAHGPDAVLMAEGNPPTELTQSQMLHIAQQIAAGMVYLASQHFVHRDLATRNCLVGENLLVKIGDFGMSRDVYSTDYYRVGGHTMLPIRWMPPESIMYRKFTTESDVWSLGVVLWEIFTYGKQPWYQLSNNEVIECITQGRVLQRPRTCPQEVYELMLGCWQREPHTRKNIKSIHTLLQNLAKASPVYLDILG

The test deals with TRKB (Mus musculus, UniProt P15209). Briefly: Cell-free ligand binding assay on immobilised TRKB from HEK293T lysates. As to conditions: read-out: Kd of tritiated imipramine binding to TRKB; tritiated imipramine 0-30 μM, scintillation; tested as the radiolabelled form.

For the molecule `CN(C)CCCN1c2ccccc2CCc2ccccc21` [imipramine], the Kd was 1430 nM.

The term Kd denotes the concentration at which binding is half-saturated.
